Drawing on ChEMBL document CHEMBL4004788, “Cyclin-Dependent Kinase (CDK) Inhibitors: Structure-Activity Relationships and Insights into the CDK-2 Selectivity of 6-Substituted 2-Arylaminopurines” (J Med Chem, 2017), this text covers IC50 for one compound.

Where only a bound is given, the exact number is not on record here.

For this assay, the target named is Cyclin-dependent kinase 2 (Homo sapiens, UniProt P24941).

With `COc1nc(N)nc2nc[nH]c12` [METHYLGUANINE], the IC50 is above 100 µM.
